Test: Solubility (20° C.) of branched chain-containing and straight chain-containing aromatic compounds in various solvents

(4′,4′-bisdihydrophytyloxy)benzhydrol [Example 4]
solubility in CPME (saturated in CPME (cyclopentylmethylether) at 20° C.): >50 wt % | solubility in chloroform (saturated in chloroform at 20° C.): >50 wt % | solubility in ethyl acetate (saturated in ethyl acetate at 20° C.): >25 wt % | solubility in isopropyl acetate (saturated in isopropyl acetate at 20° C.): >25 wt %

Source: patent publication US10711033B2, “Branched chain-containing aromatic compound” (AJINOMOTO CO., INC., priority 2010, dated 2020)
